{"source": "paper PMC5317049", "about": "“Ex vivo^18O-labeling mass spectrometry identifies a peripheral amyloid β clearance pathway” (Molecular Neurodegeneration, 2017)", "key": {"Aβ": {"system": "Aβ", "conditions": "than solanezumab; cited from earlier work", "from_the_text": "The pathophysiological relevance of the observations needs to be determined in future studies."}, "Aβ1-40": {"molecular_target": "T1, Aβ1-40 (Homo sapiens, UniProt P05067)", "T1 construct": "To 1 ml PBS containing isotopic labeled Aβ1-40 (0.016 μM) 4 μg of each of the recombinant antibodies; purchased Anaspec, Inc", "experiment": "Effect of antibodies on Aβ degradation in 5% serum", "assay_type": "biochemical", "conditions": "4 μg recombinant antibody in 1 ml PBS with 0.016 μM labeled Aβ1-40, 1 h pre-incubation, then 5% serum overnight, room temperature; IP-MALDI MS", "experimental": "To 1 ml PBS containing isotopic labeled Aβ1-40 (0.016 μM) 4 μg of each of the recombinant antibodies solanezumab, bapineuzumab and crenezumab were added, followed by incubation for 1 h at room temperature. The antibodies were expressed and purified as previously described. Each sample was spiked with serum (5%, end concentration) followed by incubation overnight at room temperature. The samples were placed in a 100 °C heating block for five minutes to disrupt potential antibody/Aβ complexes, and subsequently centrifuged for 10 min at 4 °C (31.000 x g). The supernatants were transferred to new tubes and Aβ peptides were immunoprecipitated and analyzed by mass spectrometry as described above."}}, "data": [{"substance": "bapineuzumab: recombinant anti-Aβ antibody bapineuzumab", "values": [{"measurement": "affinity for Aβ compared with solanezumab", "setting": "Aβ", "value": "much lower affinity"}, {"measurement": "effect on proteolytic degradation of Aβ1-40 in serum", "setting": "Aβ1-40", "value": "did not block the degradation"}]}]}
